Reference: patent US4012395A, “Process for preparing thiazolidinone acetic acid derivatives” (Warner-Lambert Company, priority 1974, dated 1977)

Test system: rats
Details: rat, in vivo, iv

## CCOC(=O)/C=C1\SC(N2CCCCC2)C(=O)N1C (stereo not drawn) [Etozolin, ethyl-3-methyl-4-oxo-5-piperidino-Δ^2,α -thiazolidineacetate]
  LD50 confidence limits: 45.9 to 69.5 mg/kg
